Active and inactive are the calls of the source. No cut-off for these calls is given here.
How the values were obtained:
[1] = molecular target: T1, Serine/threonine-protein kinase Chk1 (Homo sapiens) (UniProt O14757); conditions: Mus musculus; NOD/SCID; LN-229; dose 100.0 mg/kg, route po, time 48.0 hrs
T1 sequence (whole entry): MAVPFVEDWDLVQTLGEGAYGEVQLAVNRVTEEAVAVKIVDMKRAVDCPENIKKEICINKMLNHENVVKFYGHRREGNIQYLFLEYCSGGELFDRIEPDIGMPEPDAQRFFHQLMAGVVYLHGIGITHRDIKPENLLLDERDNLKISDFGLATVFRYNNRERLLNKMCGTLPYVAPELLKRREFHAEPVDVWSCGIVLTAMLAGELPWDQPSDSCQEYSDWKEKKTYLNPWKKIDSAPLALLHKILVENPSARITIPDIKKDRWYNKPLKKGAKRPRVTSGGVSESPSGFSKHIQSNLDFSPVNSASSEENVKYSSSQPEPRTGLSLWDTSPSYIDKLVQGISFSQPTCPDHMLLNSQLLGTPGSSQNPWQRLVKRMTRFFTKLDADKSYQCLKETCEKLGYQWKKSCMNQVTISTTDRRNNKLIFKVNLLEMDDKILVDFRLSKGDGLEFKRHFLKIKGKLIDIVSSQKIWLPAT

Protein sequences, listed by entry. Tags and fused reporters are not part of them.
UniProt O96017, whole entry: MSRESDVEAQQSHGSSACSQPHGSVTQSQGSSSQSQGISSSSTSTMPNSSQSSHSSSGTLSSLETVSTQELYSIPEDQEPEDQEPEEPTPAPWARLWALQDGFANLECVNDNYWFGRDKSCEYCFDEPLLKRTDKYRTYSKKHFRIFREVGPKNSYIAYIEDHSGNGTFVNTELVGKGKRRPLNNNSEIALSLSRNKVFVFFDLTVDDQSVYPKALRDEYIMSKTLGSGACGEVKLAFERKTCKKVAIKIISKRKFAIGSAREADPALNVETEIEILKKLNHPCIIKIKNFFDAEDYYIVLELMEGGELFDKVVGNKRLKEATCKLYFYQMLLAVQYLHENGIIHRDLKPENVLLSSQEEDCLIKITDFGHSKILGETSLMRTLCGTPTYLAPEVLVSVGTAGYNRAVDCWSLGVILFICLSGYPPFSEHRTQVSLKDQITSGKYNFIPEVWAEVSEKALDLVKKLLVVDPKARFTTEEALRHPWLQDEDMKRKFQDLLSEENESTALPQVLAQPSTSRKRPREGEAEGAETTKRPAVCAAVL

[2] = molecular target: T1, Serine/threonine-protein kinase Chk1 (Homo sapiens); conditions: Mus musculus; NOD/SCID; LN-229; dose 100.0 mg/kg, route po, time 48.0 hrs; remark: listed apart in the source
[3] = molecular target: Serine/threonine-protein kinase Chk2 (Homo sapiens, UniProt O96017); experiment: biochemical
[4] = molecular target: T1, Serine/threonine-protein kinase Chk1 (Homo sapiens); conditions: Mus musculus; NOD/SCID; LN-229; dose 10-100 mg/kg, route po, time 3-48 hrs
[5] = molecular target: T1, Serine/threonine-protein kinase Chk1 (Homo sapiens); conditions: Mus musculus; LN-229; dose 10-100 mg/kg, route po, time 3-48 hrs
[6] = molecular target: T1, Serine/threonine-protein kinase Chk1 (Homo sapiens); conditions: Mus musculus; NOD/SCID; LN-229; dose 10-100 mg/kg, route po, time 48.0 hrs

## CN(C)[C@@H]1CCN(c2ccc(-n3cnc(Nc4cnc(C#N)cn4)c3)cc2)C1
[1]
  inhibition: Active
[2]
  inhibition: Active
[3]
  IC50: 1790 nM
[4]
  inhibition: Dose-dependent-effect
[5]
  inhibition: Time-dependent-effect
[6]
  inhibition: Dose-dependent-effect

From ChEMBL document CHEMBL6177977, “Discovery of a Potent, Selective, and Brain-Penetrant Checkpoint Kinase 1 Inhibitor, BEN-28010, for the Treatment of Glioblastoma” (J Med Chem, 2025)
